The subject of the experiment is Nedd4L mRNA in T cells from MS patients. Nature of the experiment: Nedd4L mRNA expression, real-time PCR. The format is cell-based, human. The settings on record: T cells from 12 MS patients, normalized to GAPDH, Figure 2c; pU24-6A p: 0.0025, pc: 0.018; pU24-6B p: 0.004, pc: 0.028; Nedd4L RNAi p: 0.0015, pc: 0.011.

SMILES strings stand for the structures.

As for `CSCC[C@H](NC(=O)[C@@H](NC(=O)[C@H](CC(=O)O)NC(=O)[C@H](CC(N)=O)NC(=O)[C@H](Cc1ccc(O)cc1)NC(=O)[C@H](CO)NC(=O)[C@@H]1CCCN1C(=O)[C@@H]1CCCN1C(=O)[C@@H]1CCCN1C(=O)[C@@H](NC(=O)[C@H](CCC(=O)O)NC(=O)[C@H](Cc1c[nH]cn1)NC(=O)[C@@H](NC(=O)[C@@H](N)CCSC)[C@@H](C)O)[C@@H](C)O)C(C)C)C(=O)N[C@@H](CC(C)C)C(=O)O`, the “Nedd4L mRNA expression” value is on record as “did not modify Nedd4L mRNA expression”.

The values are drawn from paper PMC9696605.
